In BindingDB's records for US8969358:

molecular target: Mu-type opioid receptor (Homo sapiens, UniProt P35372); assay: Binding Assay; settings: pH 7.4

| SMILES | Ki [nM] |
| --- | --- |
| COc1ccc2c3c1O[C@H]1[C@@]4(OC)CC[C@@]5(C[C@@H]4CNC(=O)[C@H](C)N)[C@@H](C2)N(CC2CC2)CC[C@]315 | 190 |

molecular target: Kappa-type opioid receptor (Homo sapiens, UniProt P41145); assay: Binding Assay; settings: pH 7.4

| SMILES | Ki [nM] |
| --- | --- |
| CO[C@]12CC[C@@]3(C[C@@H]1CNC(=O)[C@@H]1CCCN1C(C)=O)[C@H]1Cc4ccc(O)c5c4[C@@]3(CCN1CC1CC1)[C@H]2O5 | 0.16 |
| CO[C@]12CC[C@@]3(C[C@@H]1CNC(=O)[C@H](C)N)[C@H]1Cc4ccc(O)c5c4[C@@]3(CCN1CC1CC1)[C@H]2O5 | 0.14 |
| CO[C@]12CC[C@@]3(C[C@@H]1CNC(=O)[C@H](Cc1c[nH]cn1)NC(C)=O)[C@H]1Cc4ccc(O)c5c4[C@@]3(CCN1CC1CC1)[C@H]2O5 | 0.95 |
| COC12CC[C@@]3(C[C@@H]1CNC(=O)CCC(=O)O)[C@H]1Cc4ccc(O)c5c4[C@@]3(CCN1CC1CC1)[C@H]2O5 | 2.62 |
| CO[C@]12CC[C@@]3(C[C@@H]1CNC(=O)[C@H](C)NC(C)=O)[C@H]1Cc4ccc(O)c5c4[C@@]3(CCN1CC1CC1)[C@H]2O5 | 0.35 |
| COC12CC[C@@]3(C[C@@H]1CNC(=O)CCc1nnn[nH]1)[C@H]1Cc4ccc(O)c5c4[C@@]3(CCN1CC1CC1)[C@H]2O5 | 1.15 |
| CO[C@]12CC[C@@]3(C[C@@H]1CNC(=O)[C@H](CC(=O)O)NC(C)=O)[C@H]1Cc4ccc(O)c5c4[C@@]3(CCN1CC1CC1)[C@H]2O5 | 7.1 |
| CO[C@]12CC[C@@]3(C[C@@H]1CNC(=O)[C@H](CC(C)C)NC(C)=O)[C@H]1Cc4ccc(O)c5c4[C@@]3(CCN1CC1CC1)[C@H]2O5 | 0.35 |
| CO[C@]12CC[C@@]3(C[C@@H]1CNC(=O)[C@@H](N)CC(C)C)[C@H]1Cc4ccc(O)c5c4[C@@]3(CCN1CC1CC1)[C@H]2O5 | 0.06 |
| CC[C@H](C)[C@H](NC(C)=O)C(=O)NC[C@H]1C[C@@]23CC[C@]1(OC)[C@@H]1Oc4c(O)ccc5c4[C@@]12CCN(CC1CC1)[C@@H]3C5 | 0.4 |
| CO[C@]12CC[C@@]3(C[C@@H]1CNC(=O)[C@H](CC(N)=O)NC(C)=O)[C@H]1Cc4ccc(O)c5c4[C@@]3(CCN1CC1CC1)[C@H]2O5 | 0.62 |
